Data from ChEMBL document CHEMBL4004782, “A review on tacrine-based scaffolds as multi-target drugs (MTDLs) for Alzheimer's disease” (Eur J Med Chem, 2017).
pIC50: −log10 of the molar value.

The chains behind the UniProt entries cited, without tags or fusion partners. Where a name states a change or a piece, a line headed by the entry shows the natural chain unless it says otherwise.
UniProt P22303: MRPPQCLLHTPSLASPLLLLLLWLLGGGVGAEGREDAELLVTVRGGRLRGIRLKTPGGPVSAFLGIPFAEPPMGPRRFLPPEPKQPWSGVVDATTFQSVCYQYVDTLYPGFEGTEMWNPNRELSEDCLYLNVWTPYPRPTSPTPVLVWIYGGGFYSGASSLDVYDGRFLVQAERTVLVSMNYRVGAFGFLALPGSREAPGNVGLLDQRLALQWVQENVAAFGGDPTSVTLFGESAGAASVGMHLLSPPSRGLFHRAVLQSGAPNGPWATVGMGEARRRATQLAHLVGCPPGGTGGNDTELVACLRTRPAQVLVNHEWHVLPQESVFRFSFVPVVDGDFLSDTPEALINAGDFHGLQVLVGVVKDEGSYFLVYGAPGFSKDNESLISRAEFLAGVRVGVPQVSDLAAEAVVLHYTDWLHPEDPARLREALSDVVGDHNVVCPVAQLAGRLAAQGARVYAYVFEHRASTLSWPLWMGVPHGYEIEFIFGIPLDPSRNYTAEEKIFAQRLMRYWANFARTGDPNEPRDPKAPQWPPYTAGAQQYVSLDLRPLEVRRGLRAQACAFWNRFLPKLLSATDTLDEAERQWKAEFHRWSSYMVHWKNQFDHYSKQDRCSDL

Biological target: Acetylcholinesterase (Homo sapiens, UniProt P22303)
Assay: Inhibition of human AchE-induced amyloid beta (1 to 40) aggregation after 48 hrs by thioflavin T fluorescence spectroscopic method

## CC[N+](C)(CC)CCC[n+]1c(-c2ccccc2)c2cc(N)ccc2c2ccc(N)cc21 [PROPIDIUM]
  pIC50: 4.35
